The values below come from US20060121117A1, “Anti-angiogenic compositions and methods of use” (ANGIOTECH PHARMACEUTICALS, INC., priority 1993, published 2006).

The series in a line: Release from 50:50 ELVAX:poly-l-lactic acid microspheres. Format: physicochemical. The following applies: 18 hours of tumbling at 37° C. The procedure: Microspheres are then prepared in a dissolution machine (Six-spindle dissolution tester, VanderKanp, Van Kell Industries Inc., U.S.A.) in triplicate at 200 rpm, 42° C., for 3 hours. Microspheres so prepared are washed twice in water and sized on the microscope.

baccatin: the “% of the total drug released from the microspheres (fluorescence assay)” value came out at 60% and the “% of the total drug released from the microspheres (uv/vis assay)” value worked out at 55%.
